# In patent publication US12384813B2, “Polymer linked multimers of guanosine-3′, 5′-cyclic monophosphates” (MIRECA MEDICINES GMBH, priority 2016, dated 2025):
# Molecular target: T1, PKG Iβ (Homo sapiens, UniProt Q13976)
# T1 construct: made in house; host or cells: Sf9 cells
# T1 sequence (Q13976 1-686 isoform Q13976-2): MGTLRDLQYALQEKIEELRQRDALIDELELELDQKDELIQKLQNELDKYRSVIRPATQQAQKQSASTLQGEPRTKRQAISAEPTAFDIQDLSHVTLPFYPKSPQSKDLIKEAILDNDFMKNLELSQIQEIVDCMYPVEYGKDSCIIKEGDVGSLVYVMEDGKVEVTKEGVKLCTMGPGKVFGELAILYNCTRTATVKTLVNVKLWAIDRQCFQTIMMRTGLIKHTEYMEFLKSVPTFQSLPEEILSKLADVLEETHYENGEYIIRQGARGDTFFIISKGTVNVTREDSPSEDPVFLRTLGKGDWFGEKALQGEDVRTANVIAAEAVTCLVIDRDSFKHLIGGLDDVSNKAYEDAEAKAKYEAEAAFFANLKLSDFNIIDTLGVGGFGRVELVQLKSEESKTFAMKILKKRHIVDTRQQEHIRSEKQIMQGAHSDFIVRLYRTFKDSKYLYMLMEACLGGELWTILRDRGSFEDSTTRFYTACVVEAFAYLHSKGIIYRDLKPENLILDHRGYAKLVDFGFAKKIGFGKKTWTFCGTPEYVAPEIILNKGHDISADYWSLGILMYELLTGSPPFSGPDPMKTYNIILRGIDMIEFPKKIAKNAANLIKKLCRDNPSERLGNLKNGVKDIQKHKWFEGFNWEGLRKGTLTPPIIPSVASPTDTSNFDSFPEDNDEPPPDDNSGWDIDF
# Experiment: In vitro activation of PKG Iβ, ADP-Glo Kinase Assay (luminescence), VASPtide substrate
# Assay type: biochemical
# Settings: PKG Iβ 0.15 nM, room temperature, 60 min; measurable up to 2832-fold
structure (smiles),measurement,value
"O=c1c2nc(SCCn3cc(COCCOCCOCCOCCOCCOCCOCc4cn(CCSc5nc6c(=O)n7cc(-c8ccccc8)[nH]c7nc6n5[C@@H]5OC6CO[PH](O)(O)O[C@H]6C5O)nn4)nn3)n([C@@H]3OC4CO[PH](O)(O)O[C@H]4C3O)c2nc2[nH]c(-c3ccccc3)cn12 (stereo partly drawn) [compound 23, β-Phenyl-1,N^2-ethenoguanosine-3′,5′-cyclic monophosphate-[8-thioethyl-(1-[1,2,3]-triazole-4-yl)-methoxy-(hexaethoxy)-methyl-(4-[1,2,3]-triazole-1-yl)-ethylthio-8]-β-phenyl-1,N^2-ethenoguanosine-3′,5′-cyclic monophosphate]",relative PKG Iβ activation compared to cGMP (cGMP set as 1),≥ 2832 fold
